Test results: ChEMBL document CHEMBL3351595, “Cyclic acyl guanidines bearing carbamate moieties allow potent and dirigible cholinesterase inhibition of either acetyl- or butyrylcholinesterase” (Bioorg Med Chem, 2014)

Sequences of proteins named here, by UniProt entry; tags and fusion partners are left off.
UniProt P81908, whole entry: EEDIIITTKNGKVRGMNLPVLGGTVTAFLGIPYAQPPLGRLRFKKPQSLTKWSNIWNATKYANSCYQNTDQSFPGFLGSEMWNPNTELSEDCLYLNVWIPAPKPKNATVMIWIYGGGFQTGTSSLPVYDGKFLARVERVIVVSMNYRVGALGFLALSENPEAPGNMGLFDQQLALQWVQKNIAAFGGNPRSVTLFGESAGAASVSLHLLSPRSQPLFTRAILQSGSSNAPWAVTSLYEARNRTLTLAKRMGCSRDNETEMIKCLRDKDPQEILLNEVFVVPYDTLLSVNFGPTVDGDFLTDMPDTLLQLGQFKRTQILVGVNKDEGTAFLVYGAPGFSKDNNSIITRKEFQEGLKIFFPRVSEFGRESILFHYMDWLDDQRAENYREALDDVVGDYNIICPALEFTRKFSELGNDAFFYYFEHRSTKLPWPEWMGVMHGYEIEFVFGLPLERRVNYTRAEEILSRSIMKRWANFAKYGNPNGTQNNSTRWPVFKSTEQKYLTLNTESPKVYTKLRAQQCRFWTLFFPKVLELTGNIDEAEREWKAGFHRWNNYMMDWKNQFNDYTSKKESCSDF

Molecular target: Cholinesterase (Equus caballus, UniProt P81908)
Assay: Inhibition of equine serum BChE using ATC iodide substrate by DTNB based assay

With `CNC(=O)Oc1ccc2c(c1)[C@]1(C)CCN(C)[C@@H]1N2C` [PHYSOSTIGMINE] as the compound, how does the IC50 read?
Its IC50 is 40 nM.
